Laboratory results from US20090048196A1, “Membrane receptor for retinol binding protein mediates cellular uptake of vitamin A, methods of use and compositions” (THE REGENTS OF THE UNIVERSITY OF CALIFORNIA, priority 2007, published 2009).

Target: bovine STRA6 (wild-type) (bovine) (UniProt Q0V8E7)
Experiment: cell-based or functional assay

- cell-free 3H-retinol uptake by membranes, share of total radioactivity in 10 minutes: 17%
- retinol taken up in 1 hour relative to moles of RBP bound to the cell surface at steady state (3 nM 3H-retinol-RBP): 4.6 times
- retinol taken up in 1 hour relative to moles of RBP bound to the cell surface at steady state (0.44 µM retinol-RBP, HPLC assay): 14 times
- retinyl ester accumulation (HPLC assay of vitamin A uptake from holo-RBP): 15 fold
- share of total radioactivity taken up from 3 nM 3H-retinol-RBP in 1 hour by COS-1 cells transfected with STRA6 and LRAT: 25%
- share of total radioactivity taken up from 3 nM 3H-retinol-RBP in 2 hours by COS-1 cells transfected with STRA6 and LRAT: 50%
Substance: His-tagged RBP (N-terminal 6xHis tag) (from UniProt P02753 19-201) (ligand)
